# Experimental data taken from patent publication US11661419B2, “Benzimidazole derivative compounds and uses thereof” (Pfizer Inc., priority 2019, dated 2023).
# Tested on: IL-2 in activated CD4+ human T-cells
# Assay: IL-2 inhibition in supernatants from activated CD4+ human T-cells (cisbio HTRF)
# Type: cell-based
# Settings: T-cell; geometric mean of count n; CD3/CD28-expanded human CD4+ T cells stimulated with ImmunoCult, 20 to 24 hrs
# Procedure: IL-2-Inhibition Activity, IC50 (uM)
# IL-2 inhibition activity in supernatants from activated CD4+ human T-cells was determined by measuring the effect of a test compound on the activity using the cisbio HTRF™ technology.
# Human CD4+ T cells were activated with CD3/CD28 for 3 days and expanded for an additional 4-6 days (7 to 9 days total). On day 0, frozen CD4+ T cells were thawed, treated with CD3/CD28 Dynabeads, and incubated at 37° C./5% CO2. On day 3, the beads were removed, and the cells were diluted to 5×10^5 cells/cm^2, placed in G-Rex10 flask, and incubated at 37° C./5% CO2. On day 7 to day 9 the cells were removed from the G-Rex flasks, counted and diluted back to 1×10^6 cells/ml in standard tissue culture flask.
# The expanded CD4+ T-cells were centrifuged at 300×g for 10 minutes and resuspended to 0.5 million cells per ml (30,000 cells/well). 60 μl of CD4+ T cells were added per well to a 384 well plate containing 0.1 μL of varying concentrations of test compound in DMSO. The plates were incubated for 15 min at 37° C./5% CO2. 20 μl of diluted ImmunoCult™ ([…] Technologies, 1:12.5 in T cell assay media) were added to all wells of the plate (1:50 final assay concentration). The plates were incubated for an additional 20 to 24 hrs at 37° C./5% CO2. […] Plates were incubated for 3 hours at RT and read with an EnVision plate reader at 665 nm and 615 nm wavelengths.
row,IC50 [nM],Compound
1,39,"Cc1cc2[nH]c(-c3n[nH]c4c3C[C@@H]3C[C@]3(C)C4)nc2cc1N(C)C(=O)[C@H](C)N1CCOCC1 [Example 1, (S)—N-methyl-N-(6-methyl-2-((4aS,5aR)-5a-methyl-1,4,4a,5,5a,6-hexahydrocyclopropa[f]indazol-3-yl)-1H-benzo[d]imidazol-5-yl)-2-morpholinopropanamide]"
2,113,"Cc1cc2[nH]c(-c3n[nH]c4c3C[C@@H]3C[C@]3(C)C4)nc2cc1N(C)C(=O)[C@@H](C)N1CCOCC1 [Example 3, (R)—N-methyl-N-(6-methyl-2-((4aS,5aR)-5a-methyl-1,4,4a,5,5a,6-hexahydrocyclopropa[f]indazol-3-yl)-1H-benzo[d]imidazol-5-yl)-2-morpholinopropanamide]"
